Drawing on US20230027739A1, “ANTIGEN-BINDING AND ANTIGEN D[…]” (Entrada Therapeutics, Inc., priority 2021, published 2023), this text covers Kd for 1 molecule.

For the test, the target named is GST-KRas^G12D(1-188)-GDP (human).

B1: K19-Cys-EEV12 (designed binder)
chain: MHHHHHHENLYFQGDLGKKLLEAARAGQDDEVRILMANGADVNASDRWGWTPLHLAAWWGHLEIVEVLLKRGADVSAADLHGQSPLHLAAMVGHLEIVEVLLKYGADVNAKDTMGATPLHLAARSGHLEIVEELLKNGADMNAQDKFGKTTFDISTDNGNEDLAEILQKLC
modifications: not checked
A word on the Kd: it is a measure of binding affinity in units of concentration. Lower therefore signals tighter binding. The molecule B1 gave an equilibrium dissociation constant (Kd) of 3.15 nM.
